Structures are written as SMILES.

The assay deals with DQB1*03:02. Nature of the assay: Peptide binding to HLA-DQ allele, competition assay. Also on record: species or system human.

Broadly, the IC50 is the concentration at which inhibition is half-maximal. A lower IC50 goes with greater potency. Compound `CC[C@H](C)[C@H](NC(=O)[C@H](Cc1ccc(O)cc1)NC(=O)[C@H](CCC(N)=O)NC(=O)[C@H](CC(=O)O)NC(=O)[C@H](Cc1ccccc1)NC(=O)[C@H](CCC(N)=O)NC(=O)[C@@H](NC(=O)[C@H](CCSC)NC(=O)[C@H](Cc1ccc(O)cc1)NC(=O)[C@@H](NC(=O)[C@H](CC(C)C)NC(=O)[C@H](CCC(N)=O)NC(=O)[C@H](CO)NC(=O)[C@@H](N)CC(C)C)[C@@H](C)O)[C@@H](C)CC)C(=O)O` [Peptide 3563.0012] registered an IC50 of 642 nM.

The values are drawn from patent US12448433B2, “Human ApoB100 epitopes, methods and uses for modulating inflammatory responses, and treating adverse cardiovascular events, disease and atherosclerosis” (LA JOLLA INSTITUTE FOR ALLERGY AND IMMUNOLOGY, priority 2015, dated 2025).
